In the library only some 0.46% were active in any assay of this set; here they are far more common.
GIV-Gai inh: inhibitors of GIV GBA-motif binding to rat Galpha-i3; P08753; Galpha-i3/FITC-GIV peptide fluorescence polarization, 90 min; hits give low values; scaled: aluminum fluoride 0%, vehicle 100%; percent of control (FP), % (no concentration beside the values); hit rate 0.42% among 210,000; AID 1224905;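 active = replicate mean at 85% of control or lower, very high polarization wells dropped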;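 note: wells of about 15 µL received 100 nL stock; the first replicate is given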
HCMV UL50-53 inh: cytomegalovirus nuclear egress complex inhibition; HTRF UL50-UL53 interaction, normalized percent inhibition; inhibition, % (no concentration beside the values); hit rate 0.15% among 190,000; in the data active = inhibition above about 27%, passing the limit was not always enough
GIV-Gai FP conf: confirmation of inhibitors of GIV binding to rat Galpha-i3; hit rate 38% among 580; fluorescence polarization, mP at 100 µM; FITC-GIV peptide binding to Galphai3, fluorescence polarization; active compounds read low; shares compounds with GIV-Gai inh; AID 1259350;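 active = inhibition score of 15 or more, meaning 100 minus mean polarization as percent of control over three replicates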;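 note: lower mP means peptide displaced from Galphai3 so more inhibition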
GIV-Gai AS conf: confirmation of inhibitors of GIV binding to human Galpha-i3. shares compounds with GIV-Gai inh. AlphaScreen Galphai3-GIV binding, purified proteins, 90 min; active compounds read low. AlphaScreen counts at 100 µM. hit rate 39% among 580. AID 1259351;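 active = inhibition score at or above a set limit, where the score is 100 minus the three-replicate mean percent of control signal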
Each line names hits and unclear results; the compound was inactive in the other large screens (follow-up assays come after a bar, where they were run).

COc1ccc(-c2nc3c(n2O)CCC/C3=N\O)cc1	none
Cc1ccc(C)c(OCC(O)Cn2c(C3CC(=O)N(Cc4ccccc4)C3)nc3ccccc32)c1 (configuration not stated)	none
Cc1ccc(S(=O)(=O)c2ccc(C(=O)N3CCN(Cc4ccc5c(c4)OCO5)CC3)cn2)cc1	none
O=C(Nc1cccc2nsnc12)c1nc2ccccc2nc1N1CCCC1	none
O=C(Nc1cccc2nsnc12)c1nc2ccccc2nc1N1CCOCC1	GIV-Gai inh 28 | GIV-Gai FP conf inactive | GIV-Gai AS conf inactive
O=S(=O)(NC1c2cccc3cccc(c23)C1N1CCOCC1)c1ccc(Cl)cc1 (configuration not stated)	none (no result: HCMV UL50-53 inh)
COc1ccc(Cn2c(=S)[nH]c3cc(C(=O)NCCc4ccc(OC)c(OC)c4)ccc3c2=O)cc1	none (no result: HCMV UL50-53 inh)
O=C(O)c1cccc(-n2cccc2C=C2C(=O)c3ccccc3C2=O)c1	none (no result: HCMV UL50-53 inh)
O=C1C(=Cc2cccn2-c2ccc(O)cc2)C(=O)c2ccccc21	GIV-Gai inh 72 (no result: HCMV UL50-53 inh) | GIV-Gai FP conf 6.1 | GIV-Gai AS conf 19282
CC(NCc1ccc(F)cc1)C(=O)NC1CCCCC1 (configuration not stated)	none
CC(NCc1ccc(F)cc1)C12CC3CC(CC(C3)C1)C2 (configuration not stated)	none (no result: HCMV UL50-53 inh) | GIV-Gai FP conf inactive | GIV-Gai AS conf inactive
COC(=O)c1c(NC(=O)C2=Cc3ccc(C)cc3OC=C2)sc(C)c1C	none
CCCOc1ccc(CNC(=O)C(NS(=O)(=O)c2cccs2)C(C)C)cc1 (configuration not stated)	GIV-Gai inh 84 (no result: HCMV UL50-53 inh) | GIV-Gai FP conf inactive | GIV-Gai AS conf inactive
CC(C)C(NS(=O)(=O)c1cccs1)C(=O)NCc1cccnc1 (configuration not stated)	none
Cn1c(=O)c(-c2[nH][nH]c(=O)c2/C=C2/C=Nc3ccccc32)c(O)c2ccccc21	none (no result: GIV-Gai inh)
NC(=O)CSc1nnc(C2CC2)n1C1CC1	none (no result: GIV-Gai inh)
Cc1ccc(C)n1-c1cccc(C(=O)O)c1	none (no result: GIV-Gai inh)
Cc1ccc(C)n1-c1sccc1C(=O)CC#N	none
Cc1ccc(C)n1-c1ccc(CC(=O)O)cc1	GIV-Gai inh 36 | GIV-Gai FP conf 33 | GIV-Gai AS conf 2612
Cc1ccc(C)n1-c1sccc1C(=O)O	GIV-Gai inh 27 | GIV-Gai FP conf inactive | GIV-Gai AS conf 3223
CCc1ccc(-n2c(C)ccc2C)cc1	none (no result: GIV-Gai inh)
Cc1ccc(C)n1-c1ccc(C(=O)O)c(C(=O)O)c1	GIV-Gai inh 60 | GIV-Gai FP conf 49 | GIV-Gai AS conf 3015
Cc1ccc(S(=O)(=O)c2cnc(N3CCC4(CC3)OCCO4)nc2N)cc1	none (no result: HCMV UL50-53 inh)
Cc1nnc2ccc(N3CCC(C(=O)N4CCN(c5ncccn5)CC4)CC3)nn12	none
Cc1ccc(-c2nc3sc(N(C)CC(=O)NCCc4c[nH]c5ccccc45)nn3c2NC(C)(C)C)cc1	none
c1ccc(Cc2noc(-c3cccc4nccnc34)n2)cc1	none (no result: GIV-Gai inh)
CCOC(=O)N1CC=C2C(C#N)=C(N)C(C#N)(C#N)C(CC)C2C1 (configuration not stated)	none
CCCC1C2CN(C(C)C)CC=C2C(C#N)=C(N)C1(C#N)C#N (configuration not stated)	GIV-Gai inh 79 | GIV-Gai FP conf inactive | GIV-Gai AS conf inactive
CCOc1cc(C(c2c(C)[nH]n(-c3ccccc3)c2=O)c2c(C)[nH]n(-c3ccccc3)c2=O)ccc1OCc1ccc(Cl)cc1	GIV-Gai inh 81 (no result: HCMV UL50-53 inh) | GIV-Gai FP conf 52 | GIV-Gai AS conf inactive
CCOc1cc(C(c2c(C)[nH]n(-c3ccccc3)c2=O)c2c(C)[nH]n(-c3ccccc3)c2=O)ccc1O	none
Cc1[nH]n(-c2ccccc2)c(=O)c1C(c1ccccc1O)c1c(C)[nH]n(-c2ccccc2)c1=O	GIV-Gai inh 67 (no result: HCMV UL50-53 inh) | GIV-Gai FP conf inactive | GIV-Gai AS conf 17967
COc1ccc(C(c2c(C)[nH]n(-c3ccccc3)c2=O)c2c(C)[nH]n(-c3ccccc3)c2=O)cc1	none (no result: HCMV UL50-53 inh)
Cc1[nH]n(-c2ccccc2)c(=O)c1C(c1cc(Cl)ccc1O)c1c(C)[nH]n(-c2ccccc2)c1=O	none
Cc1ccc(C(c2c(C)[nH]n(-c3ccccc3)c2=O)c2c(C)[nH]n(-c3ccccc3)c2=O)cc1	none (no result: HCMV UL50-53 inh)
Cc1[nH]n(-c2ccccc2)c(=O)c1C(c1ccc(F)cc1)c1c(C)[nH]n(-c2ccccc2)c1=O	GIV-Gai inh 72 (no result: HCMV UL50-53 inh) | GIV-Gai FP conf inactive | GIV-Gai AS conf 24882
COc1ccc(C(c2c(C)[nH]n(-c3ccccc3)c2=O)c2c(C)[nH]n(-c3ccccc3)c2=O)cc1OC	GIV-Gai inh 76 (no result: HCMV UL50-53 inh) | GIV-Gai FP conf 44 | GIV-Gai AS conf 4694
CC(=CC(=O)OCCCCCCCCC(=O)O)CC1OC[C@H](CC2O[C@H]2C(C)C(C)O)C(O)C1O (some centres not stated)	none (no result: GIV-Gai inh)

Source: PubChem BioAssay
